Amino acid sequences for entries named in this document (tags omitted). Residues count along the entry.
UniProt Q14289, whole entry: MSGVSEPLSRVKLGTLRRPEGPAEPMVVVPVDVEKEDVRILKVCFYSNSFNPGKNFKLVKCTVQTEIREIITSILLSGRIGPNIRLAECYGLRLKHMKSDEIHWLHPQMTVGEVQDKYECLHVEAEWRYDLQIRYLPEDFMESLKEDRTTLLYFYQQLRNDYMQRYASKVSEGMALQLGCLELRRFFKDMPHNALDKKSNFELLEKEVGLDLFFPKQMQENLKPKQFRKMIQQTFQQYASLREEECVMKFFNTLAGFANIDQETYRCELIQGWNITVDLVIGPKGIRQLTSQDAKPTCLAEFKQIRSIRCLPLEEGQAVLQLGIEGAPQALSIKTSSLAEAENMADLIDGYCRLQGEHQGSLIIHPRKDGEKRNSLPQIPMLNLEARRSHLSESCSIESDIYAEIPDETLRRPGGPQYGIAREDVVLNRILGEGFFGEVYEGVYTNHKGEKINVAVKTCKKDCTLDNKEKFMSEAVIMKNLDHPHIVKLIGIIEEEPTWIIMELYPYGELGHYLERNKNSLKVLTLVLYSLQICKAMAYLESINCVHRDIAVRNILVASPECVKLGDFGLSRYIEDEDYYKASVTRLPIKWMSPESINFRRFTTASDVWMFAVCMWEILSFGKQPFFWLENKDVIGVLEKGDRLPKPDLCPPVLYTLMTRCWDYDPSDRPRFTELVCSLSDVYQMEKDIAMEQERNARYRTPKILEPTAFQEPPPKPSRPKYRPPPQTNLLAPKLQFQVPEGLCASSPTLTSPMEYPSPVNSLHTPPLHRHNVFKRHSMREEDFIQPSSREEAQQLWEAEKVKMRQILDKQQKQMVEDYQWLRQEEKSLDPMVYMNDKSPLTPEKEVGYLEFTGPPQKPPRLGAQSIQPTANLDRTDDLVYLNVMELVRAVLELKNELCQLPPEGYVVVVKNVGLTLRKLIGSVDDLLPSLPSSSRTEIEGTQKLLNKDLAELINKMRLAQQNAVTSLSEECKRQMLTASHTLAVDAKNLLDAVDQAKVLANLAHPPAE
UniProt Q5S007, whole entry: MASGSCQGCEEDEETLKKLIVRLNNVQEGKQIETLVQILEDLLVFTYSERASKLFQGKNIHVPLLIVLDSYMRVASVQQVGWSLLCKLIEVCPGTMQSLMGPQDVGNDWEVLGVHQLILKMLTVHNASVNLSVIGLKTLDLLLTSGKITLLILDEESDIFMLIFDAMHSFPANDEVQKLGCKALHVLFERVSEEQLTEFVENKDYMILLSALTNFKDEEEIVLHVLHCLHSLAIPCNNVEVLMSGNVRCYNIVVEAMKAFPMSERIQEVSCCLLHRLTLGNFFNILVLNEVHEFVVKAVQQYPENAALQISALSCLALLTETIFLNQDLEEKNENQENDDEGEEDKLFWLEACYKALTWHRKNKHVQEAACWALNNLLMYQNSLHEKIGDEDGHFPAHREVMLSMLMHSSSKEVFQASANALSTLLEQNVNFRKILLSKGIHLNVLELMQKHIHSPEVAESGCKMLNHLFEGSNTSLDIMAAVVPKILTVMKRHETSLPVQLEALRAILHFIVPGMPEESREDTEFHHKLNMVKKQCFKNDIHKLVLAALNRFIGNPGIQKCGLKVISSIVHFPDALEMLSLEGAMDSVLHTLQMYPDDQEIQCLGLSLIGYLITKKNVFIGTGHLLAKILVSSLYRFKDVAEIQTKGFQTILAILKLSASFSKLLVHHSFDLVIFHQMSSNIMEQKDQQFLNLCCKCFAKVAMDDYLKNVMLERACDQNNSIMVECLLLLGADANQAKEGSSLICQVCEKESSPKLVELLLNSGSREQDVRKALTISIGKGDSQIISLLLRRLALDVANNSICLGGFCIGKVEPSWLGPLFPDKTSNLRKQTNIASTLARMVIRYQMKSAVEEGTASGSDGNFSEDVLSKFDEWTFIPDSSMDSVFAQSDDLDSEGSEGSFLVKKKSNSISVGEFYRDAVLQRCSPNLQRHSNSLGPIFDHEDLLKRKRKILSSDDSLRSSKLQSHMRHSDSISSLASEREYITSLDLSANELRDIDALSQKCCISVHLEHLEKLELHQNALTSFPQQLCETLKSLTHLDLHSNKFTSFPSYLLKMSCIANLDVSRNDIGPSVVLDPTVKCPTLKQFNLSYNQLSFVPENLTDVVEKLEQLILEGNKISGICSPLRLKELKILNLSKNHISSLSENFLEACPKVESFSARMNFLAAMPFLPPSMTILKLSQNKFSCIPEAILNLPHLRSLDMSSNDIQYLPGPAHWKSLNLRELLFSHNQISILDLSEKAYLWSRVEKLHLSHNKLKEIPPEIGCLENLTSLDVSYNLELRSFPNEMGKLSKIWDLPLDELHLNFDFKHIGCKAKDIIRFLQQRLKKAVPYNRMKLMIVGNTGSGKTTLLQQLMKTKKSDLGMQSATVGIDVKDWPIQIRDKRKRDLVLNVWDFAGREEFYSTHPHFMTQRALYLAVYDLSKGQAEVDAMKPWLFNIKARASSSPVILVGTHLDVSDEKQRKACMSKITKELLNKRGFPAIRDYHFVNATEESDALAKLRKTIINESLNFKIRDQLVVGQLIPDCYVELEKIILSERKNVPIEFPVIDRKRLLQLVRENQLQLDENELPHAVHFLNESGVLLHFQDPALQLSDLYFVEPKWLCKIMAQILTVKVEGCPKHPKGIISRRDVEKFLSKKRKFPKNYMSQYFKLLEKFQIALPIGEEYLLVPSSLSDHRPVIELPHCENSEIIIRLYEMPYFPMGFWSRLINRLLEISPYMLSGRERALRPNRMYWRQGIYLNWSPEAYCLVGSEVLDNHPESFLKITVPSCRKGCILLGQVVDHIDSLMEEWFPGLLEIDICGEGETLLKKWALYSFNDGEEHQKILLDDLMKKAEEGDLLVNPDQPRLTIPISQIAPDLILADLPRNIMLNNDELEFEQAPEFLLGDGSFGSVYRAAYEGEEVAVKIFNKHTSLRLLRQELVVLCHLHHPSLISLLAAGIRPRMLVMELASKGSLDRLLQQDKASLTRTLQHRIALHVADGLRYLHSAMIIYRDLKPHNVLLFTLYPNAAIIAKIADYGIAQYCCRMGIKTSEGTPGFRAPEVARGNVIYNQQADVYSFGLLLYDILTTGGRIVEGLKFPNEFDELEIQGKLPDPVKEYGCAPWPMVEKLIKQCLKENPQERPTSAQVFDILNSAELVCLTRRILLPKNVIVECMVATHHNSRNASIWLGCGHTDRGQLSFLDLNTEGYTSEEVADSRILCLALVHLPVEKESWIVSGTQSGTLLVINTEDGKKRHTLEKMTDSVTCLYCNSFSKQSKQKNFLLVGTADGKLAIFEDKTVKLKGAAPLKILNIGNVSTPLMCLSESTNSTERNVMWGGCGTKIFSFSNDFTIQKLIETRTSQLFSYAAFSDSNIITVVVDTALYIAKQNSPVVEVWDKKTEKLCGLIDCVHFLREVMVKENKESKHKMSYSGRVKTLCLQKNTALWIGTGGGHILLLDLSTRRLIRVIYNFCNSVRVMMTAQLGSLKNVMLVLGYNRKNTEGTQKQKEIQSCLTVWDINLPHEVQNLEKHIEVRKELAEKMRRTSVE
UniProt P22455, 22-802 limits assumed: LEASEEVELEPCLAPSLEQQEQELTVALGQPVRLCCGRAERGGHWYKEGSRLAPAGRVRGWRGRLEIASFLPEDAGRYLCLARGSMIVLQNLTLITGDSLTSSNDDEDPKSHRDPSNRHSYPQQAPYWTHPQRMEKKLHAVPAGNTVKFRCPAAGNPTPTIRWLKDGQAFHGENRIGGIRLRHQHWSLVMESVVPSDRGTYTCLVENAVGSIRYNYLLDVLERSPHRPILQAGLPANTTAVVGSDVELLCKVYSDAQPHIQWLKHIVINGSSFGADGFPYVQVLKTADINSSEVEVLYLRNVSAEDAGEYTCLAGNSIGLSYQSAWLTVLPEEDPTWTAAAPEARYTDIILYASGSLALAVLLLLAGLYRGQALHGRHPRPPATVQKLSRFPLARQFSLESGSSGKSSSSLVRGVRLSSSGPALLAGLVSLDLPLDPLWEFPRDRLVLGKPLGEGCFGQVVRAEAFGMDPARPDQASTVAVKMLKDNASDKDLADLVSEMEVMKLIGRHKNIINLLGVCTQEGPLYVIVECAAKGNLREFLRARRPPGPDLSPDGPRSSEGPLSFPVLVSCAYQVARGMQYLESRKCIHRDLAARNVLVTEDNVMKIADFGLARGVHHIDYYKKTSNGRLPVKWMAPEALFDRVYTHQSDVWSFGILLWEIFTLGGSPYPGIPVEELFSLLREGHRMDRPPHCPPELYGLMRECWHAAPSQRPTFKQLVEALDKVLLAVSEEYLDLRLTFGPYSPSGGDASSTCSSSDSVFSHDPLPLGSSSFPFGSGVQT
UniProt P54753, 34-998 limits assumed: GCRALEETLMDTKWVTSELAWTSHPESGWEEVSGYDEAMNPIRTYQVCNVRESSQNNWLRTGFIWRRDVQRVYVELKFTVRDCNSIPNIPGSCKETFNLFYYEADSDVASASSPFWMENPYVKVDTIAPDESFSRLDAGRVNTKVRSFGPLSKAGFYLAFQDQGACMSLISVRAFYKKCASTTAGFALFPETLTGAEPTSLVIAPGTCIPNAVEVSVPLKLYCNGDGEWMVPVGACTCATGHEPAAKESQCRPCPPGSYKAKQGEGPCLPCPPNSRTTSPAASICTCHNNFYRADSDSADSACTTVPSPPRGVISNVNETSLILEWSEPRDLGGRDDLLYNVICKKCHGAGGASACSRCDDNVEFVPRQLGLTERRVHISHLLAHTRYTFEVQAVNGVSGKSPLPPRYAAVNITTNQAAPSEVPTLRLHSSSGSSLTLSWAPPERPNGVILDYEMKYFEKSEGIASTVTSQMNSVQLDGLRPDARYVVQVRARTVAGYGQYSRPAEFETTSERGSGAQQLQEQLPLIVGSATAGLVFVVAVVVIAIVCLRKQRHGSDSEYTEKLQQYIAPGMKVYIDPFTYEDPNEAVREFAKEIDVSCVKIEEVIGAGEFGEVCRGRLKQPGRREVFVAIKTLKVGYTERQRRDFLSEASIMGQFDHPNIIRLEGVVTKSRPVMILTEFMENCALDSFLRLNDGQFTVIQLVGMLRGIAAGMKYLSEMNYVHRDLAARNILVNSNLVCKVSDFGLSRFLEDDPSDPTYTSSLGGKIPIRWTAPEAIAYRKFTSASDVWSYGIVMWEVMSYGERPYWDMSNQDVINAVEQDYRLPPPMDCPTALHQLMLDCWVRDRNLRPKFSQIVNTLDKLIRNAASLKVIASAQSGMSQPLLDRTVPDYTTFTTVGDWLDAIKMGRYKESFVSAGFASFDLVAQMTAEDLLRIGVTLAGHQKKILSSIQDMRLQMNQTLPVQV
UniProt Q15759, whole entry: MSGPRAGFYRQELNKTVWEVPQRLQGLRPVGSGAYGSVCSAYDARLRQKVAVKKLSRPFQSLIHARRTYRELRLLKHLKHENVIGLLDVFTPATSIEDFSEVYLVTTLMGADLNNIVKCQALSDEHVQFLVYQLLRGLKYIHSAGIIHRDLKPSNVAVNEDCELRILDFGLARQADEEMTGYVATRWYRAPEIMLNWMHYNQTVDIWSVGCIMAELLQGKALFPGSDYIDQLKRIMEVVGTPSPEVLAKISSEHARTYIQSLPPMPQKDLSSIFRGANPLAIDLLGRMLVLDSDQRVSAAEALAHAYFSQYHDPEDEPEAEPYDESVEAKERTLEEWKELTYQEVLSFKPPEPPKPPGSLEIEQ
UniProt Q06418, 41-890 limits assumed: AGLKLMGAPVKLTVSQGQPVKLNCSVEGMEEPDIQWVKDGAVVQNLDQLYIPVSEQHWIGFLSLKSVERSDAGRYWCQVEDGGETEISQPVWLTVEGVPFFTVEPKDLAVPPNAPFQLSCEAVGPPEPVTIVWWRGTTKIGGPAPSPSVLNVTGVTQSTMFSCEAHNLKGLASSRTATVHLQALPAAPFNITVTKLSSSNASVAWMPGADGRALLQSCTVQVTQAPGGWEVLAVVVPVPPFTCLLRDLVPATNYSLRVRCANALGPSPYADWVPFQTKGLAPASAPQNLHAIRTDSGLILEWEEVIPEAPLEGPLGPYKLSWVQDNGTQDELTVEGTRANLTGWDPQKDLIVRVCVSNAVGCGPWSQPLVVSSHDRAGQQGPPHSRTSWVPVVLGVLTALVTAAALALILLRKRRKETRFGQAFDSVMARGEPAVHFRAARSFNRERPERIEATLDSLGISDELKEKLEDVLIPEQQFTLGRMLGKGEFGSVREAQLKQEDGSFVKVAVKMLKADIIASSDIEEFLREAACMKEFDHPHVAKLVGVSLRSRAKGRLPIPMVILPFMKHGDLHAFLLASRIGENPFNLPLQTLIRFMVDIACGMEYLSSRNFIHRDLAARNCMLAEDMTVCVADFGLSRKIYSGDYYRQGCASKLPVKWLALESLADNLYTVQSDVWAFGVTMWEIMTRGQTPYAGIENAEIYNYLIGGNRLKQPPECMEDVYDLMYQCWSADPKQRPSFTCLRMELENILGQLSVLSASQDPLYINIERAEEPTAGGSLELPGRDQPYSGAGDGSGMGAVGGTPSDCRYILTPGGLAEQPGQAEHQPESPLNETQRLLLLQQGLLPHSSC

According to US20260382623A1, “NOVEL COMPOUND FOR INHIBITING PROTEIN KINASES AND PHARMACEUTICAL COMPOSITION COMPRISING SAME” (published 2026):

Key:
[1] = test system: SW620; experiment: Cell growth inhibition, SW620 (CCK-8); conditions: read-out: Cell growth inhibition GI50, SW620, 72 hours
[2] = biological target: PYK2 (Homo sapiens, UniProt Q14289); experiment: Kinase panel inhibition, PYK2; conditions: 1 μM
[3] = test system: DLD-1; experiment: Cell growth inhibition, DLD-1 (CCK-8); conditions: read-out: Cell growth inhibition GI50, DLD-1, 72 hours
[4] = biological target: PKACG (Homo sapiens, UniProt P22612); experiment: Kinase panel inhibition, PKACG; conditions: 1 μM
[5] = biological target: RET (Homo sapiens, UniProt P07949); experiment: Kinase panel inhibition, RET; conditions: 1 μM
[6] = test system: HT-29; experiment: Cell growth inhibition, HT-29 (CCK-8); conditions: read-out: Cell growth inhibition GI50, HT-29, 72 hours
[7] = biological target: full kinase panel (Homo sapiens, UniProt Q9H0K1); experiment: Full kinase panel inhibition by Example compounds 8 and 51 at 1 μM (Tables 11 to 14; kinase named in each table line); conditions: SIK2
[8] = biological target: full kinase panel (Homo sapiens, UniProt Q8NG66); experiment: as above; conditions: NEK11
[9] = biological target: full kinase panel (Homo sapiens, UniProt Q9Y2K2); experiment: as above; conditions: SIK3
[10] = biological target: full kinase panel (Homo sapiens, UniProt Q16832); experiment: as above; conditions: DDR2
[11] = biological target: full kinase panel (Homo sapiens, UniProt Q9Y572); experiment: as above; conditions: RIPK3
[12] = biological target: full kinase panel (Homo sapiens, UniProt P07947); experiment: as above; conditions: YES/YES1
[13] = biological target: full kinase panel (Homo sapiens, UniProt Q07912); experiment: as above; conditions: ACK1
[14] = biological target: full kinase panel (Homo sapiens, UniProt P45983); experiment: as above; conditions: JNK1
[15] = biological target: full kinase panel (Homo sapiens, UniProt Q5S007); experiment: as above; conditions: LRRK2
[16] = biological target: full kinase panel (Homo sapiens, UniProt Q16584); experiment: as above; conditions: MLK3/MAP3K11
[17] = biological target: full kinase panel (Homo sapiens, UniProt P22607); experiment: as above; conditions: FGFR3
[18] = biological target: full kinase panel (Homo sapiens, UniProt P54762); experiment: as above; conditions: EPHB1
[19] = biological target: full kinase panel (Homo sapiens, UniProt P53779); experiment: as above; conditions: JNK3
[20] = biological target: full kinase panel (Homo sapiens, UniProt Q9H2K8); experiment: as above; conditions: TAOK3/JIK
[21] = biological target: full kinase panel (Homo sapiens, UniProt P80192); experiment: as above; conditions: MLK1/MAP3K9
[22] = biological target: full kinase panel (Homo sapiens, UniProt P22455); experiment: as above; conditions: FGFR4
[23] = biological target: full kinase panel (Homo sapiens, UniProt P54753); experiment: as above; conditions: EPHB3
[24] = biological target: full kinase panel (Homo sapiens, UniProt P23458); experiment: as above; conditions: JAK1
[25] = biological target: full kinase panel (Homo sapiens, UniProt P43405); experiment: as above; conditions: SYK
[26] = biological target: full kinase panel (Homo sapiens, UniProt Q15759); experiment: as above; conditions: P38B/MAPK11
[27] = biological target: full kinase panel (Homo sapiens, UniProt P35968); experiment: as above; conditions: KDR/VEGFR2
[28] = biological target: full kinase panel (Homo sapiens, UniProt Q02779); experiment: as above; conditions: MLK2/MAP3K10
[29] = biological target: full kinase panel (Homo sapiens, UniProt Q8NE63); experiment: as above; conditions: HIPK4
[30] = biological target: full kinase panel (Homo sapiens, UniProt P45984); experiment: as above; conditions: JNK2
[31] = biological target: full kinase panel (Homo sapiens, UniProt P29323); experiment: as above; conditions: EPHB2
[32] = biological target: full kinase panel (Homo sapiens, UniProt Q06418); experiment: as above; conditions: TYRO3/SKY
[33] = biological target: full kinase panel (Homo sapiens, UniProt P23443); experiment: as above; conditions: P70S6K/RPS6KB1
[34] = biological target: RAF1 (Homo sapiens, UniProt P04049); experiment: Kinase panel inhibition, RAF1; conditions: 1 μM

Cc1ccc(Nc2ncc3c(n2)C2(CC2)C(=O)N(c2cc(NC(=O)c4cccc(C(F)(F)F)c4)ccc2C)C3)cn1
GI50 [1]: < 5 µM
kinase inhibition (residual enzyme activity) [2]: ◯ (residual enzyme activity values were 40% or less, i.e., inhibited by 60% or more)
GI50 [3]: < 5 µM
kinase inhibition (residual enzyme activity) [4]: ◯ (residual enzyme activity values were 40% or less, i.e., inhibited by 60% or more)
kinase inhibition (residual enzyme activity) [5]: ◯ (residual enzyme activity values were 40% or less, i.e., inhibited by 60% or more)
GI50 [6]: < 5 µM
kinase inhibition (residual enzyme activity) [7]: ◯ (residual enzyme activity values were 40% or less, i.e., inhibited by 60% or more)
kinase inhibition (residual enzyme activity) [8]: ◯ (residual enzyme activity values were 40% or less, i.e., inhibited by 60% or more)
kinase inhibition (residual enzyme activity) [9]: ◯ (residual enzyme activity values were 40% or less, i.e., inhibited by 60% or more)
kinase inhibition (residual enzyme activity) [10]: ◯ (residual enzyme activity values were 40% or less, i.e., inhibited by 60% or more)
kinase inhibition (residual enzyme activity) [11]: ◯ (residual enzyme activity values were 40% or less, i.e., inhibited by 60% or more)
kinase inhibition (residual enzyme activity) [12]: ◯ (residual enzyme activity values were 40% or less, i.e., inhibited by 60% or more)
kinase inhibition (residual enzyme activity) [13]: ◯ (residual enzyme activity values were 40% or less, i.e., inhibited by 60% or more)
kinase inhibition (residual enzyme activity) [14]: ◯ (residual enzyme activity values were 40% or less, i.e., inhibited by 60% or more)
kinase inhibition (residual enzyme activity) [15]: ◯ (residual enzyme activity values were 40% or less, i.e., inhibited by 60% or more)
kinase inhibition (residual enzyme activity) [16]: ◯ (residual enzyme activity values were 40% or less, i.e., inhibited by 60% or more)
kinase inhibition (residual enzyme activity) [17]: ◯ (residual enzyme activity values were 40% or less, i.e., inhibited by 60% or more)
kinase inhibition (residual enzyme activity) [18]: ◯ (residual enzyme activity values were 40% or less, i.e., inhibited by 60% or more)
kinase inhibition (residual enzyme activity) [19]: ◯ (residual enzyme activity values were 40% or less, i.e., inhibited by 60% or more)
kinase inhibition (residual enzyme activity) [20]: ◯ (residual enzyme activity values were 40% or less, i.e., inhibited by 60% or more)
kinase inhibition (residual enzyme activity) [21]: ◯ (residual enzyme activity values were 40% or less, i.e., inhibited by 60% or more)
kinase inhibition (residual enzyme activity) [22]: ◯ (residual enzyme activity values were 40% or less, i.e., inhibited by 60% or more)
kinase inhibition (residual enzyme activity) [23]: ◯ (residual enzyme activity values were 40% or less, i.e., inhibited by 60% or more)
kinase inhibition (residual enzyme activity) [24]: ◯ (residual enzyme activity values were 40% or less, i.e., inhibited by 60% or more)
kinase inhibition (residual enzyme activity) [25]: ◯ (residual enzyme activity values were 40% or less, i.e., inhibited by 60% or more)
kinase inhibition (residual enzyme activity) [26]: ◯ (residual enzyme activity values were 40% or less, i.e., inhibited by 60% or more)
kinase inhibition (residual enzyme activity) [27]: ◯ (residual enzyme activity values were 40% or less, i.e., inhibited by 60% or more)
kinase inhibition (residual enzyme activity) [28]: ◯ (residual enzyme activity values were 40% or less, i.e., inhibited by 60% or more)
kinase inhibition (residual enzyme activity) [29]: ◯ (residual enzyme activity values were 40% or less, i.e., inhibited by 60% or more)
kinase inhibition (residual enzyme activity) [30]: ◯ (residual enzyme activity values were 40% or less, i.e., inhibited by 60% or more)
kinase inhibition (residual enzyme activity) [31]: ◯ (residual enzyme activity values were 40% or less, i.e., inhibited by 60% or more)
kinase inhibition (residual enzyme activity) [32]: ◯ (residual enzyme activity values were 40% or less, i.e., inhibited by 60% or more)
kinase inhibition (residual enzyme activity) [33]: ◯ (residual enzyme activity values were 40% or less, i.e., inhibited by 60% or more)
kinase inhibition (residual enzyme activity) [34]: ◯ (residual enzyme activity values were 40% or less, i.e., inhibited by 60% or more)
